Assay results published in PubChem BioAssay (NCI).
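Each compound was tested at five concentrations against cells in 96-well plates for 48 hours. At the GI50, growth is halved. Definition used: TGI = concentration required for complete inhibition of growth.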

Key:
Experiment in all cases: NCI anticancer screen, dose series, 48 h
UACC-257 melanoma = system: UACC-257 melanoma
OVCAR-8 ovarian = system: OVCAR-8 ovarian
OVCAR-3 ovarian = system: OVCAR-3 ovarian
HT29 colon = system: HT29 colon
HCC-2998 colon = system: HCC-2998 colon
HL-60(TB) leukemia = system: HL-60(TB) leukemia
SN12C renal = system: SN12C renal
LXFL 529 NSCLC = system: LXFL 529 NSCLC
HCT-116 colon = system: HCT-116 colon
NCI-H522 lung = system: NCI-H522 lung
786-0 renal = system: 786-0 renal
SW-620 colon = system: SW-620 colon
LOX IMVI melanoma = system: LOX IMVI melanoma
A549 NSCLC = system: A549 NSCLC
KM20L2 colon = system: KM20L2 colon
ACHN renal = system: ACHN renal
CCRF-CEM leukemia = system: CCRF-CEM leukemia
RPMI-8226 leukemia = system: RPMI-8226 leukemia
SF-268 CNS = system: SF-268 CNS
DMS 273 small cell lung = system: DMS 273 small cell lung
M14 melanoma = system: M14 melanoma
SK-MEL-5 melanoma = system: SK-MEL-5 melanoma
XF 498 CNS = system: XF 498 CNS
SK-MEL-2 melanoma = system: SK-MEL-2 melanoma
EKVX NSCLC = system: EKVX NSCLC
RXF 393 renal = system: RXF 393 renal
SF-539 CNS = system: SF-539 CNS
MOLT-4 leukemia = system: MOLT-4 leukemia
SNB-19 CNS = system: SNB-19 CNS
A498 renal = system: A498 renal
SNB-75 CNS = system: SNB-75 CNS
IGROV1 ovarian = system: IGROV1 ovarian
CAKI-1 renal = system: CAKI-1 renal
HOP-62 NSCLC = system: HOP-62 NSCLC
HCT-15 colon = system: HCT-15 colon
DMS 114 small cell lung = system: DMS 114 small cell lung
MALME-3M melanoma = system: MALME-3M melanoma
UACC-62 melanoma = system: UACC-62 melanoma
UO-31 renal = system: UO-31 renal
COLO 205 colon = system: COLO 205 colon
TK-10 renal = system: TK-10 renal
NCI-H460 lung = system: NCI-H460 lung
M19-MEL melanoma = system: M19-MEL melanoma
NCI-H322M lung = system: NCI-H322M lung
SF-295 CNS = system: SF-295 CNS
K-562 leukemia = system: K-562 leukemia
KM12 colon = system: KM12 colon
DLD-1 colon = system: DLD-1 colon
OVCAR-5 ovarian = system: OVCAR-5 ovarian
SNB-78 CNS = system: SNB-78 CNS

CCCCCCC[CH2][Sn]([CH2]CCCCCCC)([O]c1c([N+](=O)[O-])cc([N+](=O)[O-])cc1[N+](=O)[O-])[O]c1c([N+](=O)[O-])cc([N+](=O)[O-])cc1[N+](=O)[O-]
GI50 (UACC-257 melanoma): 1.59 µM
TGI (UACC-257 melanoma): 5.03 µM
GI50 (OVCAR-8 ovarian): 2.69 µM
TGI (OVCAR-8 ovarian): 12.9 µM
GI50 (OVCAR-3 ovarian): 3.05 µM
TGI (OVCAR-3 ovarian): 11.1 µM
GI50 (HT29 colon): 4.91 µM
TGI (HT29 colon): 20 µM
GI50 (HCC-2998 colon): 1.39 µM
TGI (HCC-2998 colon): 2.83 µM
GI50 (HL-60(TB) leukemia): 1.71 µM
TGI (HL-60(TB) leukemia): 6.2 µM
GI50 (SN12C renal): 2.11 µM
TGI (SN12C renal): 6.12 µM
GI50 (LXFL 529 NSCLC): 1.61 µM
TGI (LXFL 529 NSCLC): 3.09 µM
GI50 (HCT-116 colon): 2.38 µM
TGI (HCT-116 colon): 10.1 µM
GI50 (NCI-H522 lung): 2 µM
TGI (NCI-H522 lung): 6.05 µM
GI50 (786-0 renal): 1.44 µM
TGI (786-0 renal): 2.98 µM
GI50 (SW-620 colon): 2.05 µM
TGI (SW-620 colon): 7.68 µM
GI50 (LOX IMVI melanoma): 2.1 µM
TGI (LOX IMVI melanoma): 5.51 µM
GI50 (A549 NSCLC): 12.3 µM
TGI (A549 NSCLC): 37.1 µM
GI50 (KM20L2 colon): 3.59 µM
TGI (KM20L2 colon): 14.1 µM
GI50 (ACHN renal): 6.26 µM
TGI (ACHN renal): 21.2 µM
GI50 (CCRF-CEM leukemia): 1.93 µM
TGI (CCRF-CEM leukemia): 7.94 µM
GI50 (RPMI-8226 leukemia): 1.23 µM
TGI (RPMI-8226 leukemia): 4.45 µM
GI50 (SF-268 CNS): 3.18 µM
TGI (SF-268 CNS): 14.9 µM
GI50 (DMS 273 small cell lung): 2.93 µM
TGI (DMS 273 small cell lung): 13.2 µM
GI50 (M14 melanoma): 2.32 µM
TGI (M14 melanoma): 7.95 µM
GI50 (SK-MEL-5 melanoma): 1.78 µM
TGI (SK-MEL-5 melanoma): 3.73 µM
GI50 (XF 498 CNS): 2.23 µM
TGI (XF 498 CNS): 3.84 µM
GI50 (SK-MEL-2 melanoma): 1.75 µM
TGI (SK-MEL-2 melanoma): 3.29 µM
GI50 (EKVX NSCLC): 5.41 µM
TGI (EKVX NSCLC): 24.1 µM
GI50 (RXF 393 renal): 1.53 µM
TGI (RXF 393 renal): 3.8 µM
GI50 (SF-539 CNS): 2.86 µM
TGI (SF-539 CNS): 9.92 µM
GI50 (MOLT-4 leukemia): 1.7 µM
TGI (MOLT-4 leukemia): 5.79 µM
GI50 (SNB-19 CNS): 4.84 µM
TGI (SNB-19 CNS): 20.8 µM
GI50 (A498 renal): 2.59 µM
TGI (A498 renal): 6.45 µM
GI50 (SNB-75 CNS): 4.71 µM
TGI (SNB-75 CNS): 19.3 µM
GI50 (IGROV1 ovarian): 3.35 µM
TGI (IGROV1 ovarian): 16.5 µM
GI50 (CAKI-1 renal): 3.73 µM
TGI (CAKI-1 renal): 21.3 µM
GI50 (HOP-62 NSCLC): 1.7 µM
TGI (HOP-62 NSCLC): 3.36 µM
GI50 (HCT-15 colon): 3.02 µM
TGI (HCT-15 colon): 19 µM
GI50 (DMS 114 small cell lung): 2.58 µM
TGI (DMS 114 small cell lung): 8.37 µM
GI50 (MALME-3M melanoma): 1.67 µM
TGI (MALME-3M melanoma): 3.42 µM
GI50 (UACC-62 melanoma): 2.05 µM
TGI (UACC-62 melanoma): 5.92 µM
GI50 (UO-31 renal): 1.56 µM
TGI (UO-31 renal): 4.74 µM
GI50 (COLO 205 colon): 2.17 µM
TGI (COLO 205 colon): 5.45 µM
GI50 (TK-10 renal): 5.24 µM
TGI (TK-10 renal): 18.6 µM
GI50 (NCI-H460 lung): 4.54 µM
GI50 (M19-MEL melanoma): 3.19 µM
TGI (M19-MEL melanoma): 13.8 µM
GI50 (NCI-H322M lung): 5.02 µM
TGI (NCI-H322M lung): 17.3 µM
GI50 (SF-295 CNS): 4.09 µM
TGI (SF-295 CNS): 14.7 µM
GI50 (K-562 leukemia): 1.5 µM
TGI (K-562 leukemia): 8.67 µM
GI50 (KM12 colon): 3.91 µM
TGI (KM12 colon): 16.3 µM
GI50 (DLD-1 colon): 3.21 µM
TGI (DLD-1 colon): 13.3 µM
GI50 (OVCAR-5 ovarian): 7.03 µM
TGI (OVCAR-5 ovarian): 19.8 µM
GI50 (SNB-78 CNS): 3.45 µM
TGI (SNB-78 CNS): 17.8 µM
